This note sets out measurements from article PMC10308680 (Journal of Biomedical Science, 2023).

Chains of the proteins cited; added tags and fusions are not shown. Residues count along the entry.
UniProt P10747, 19-152 limits assumed: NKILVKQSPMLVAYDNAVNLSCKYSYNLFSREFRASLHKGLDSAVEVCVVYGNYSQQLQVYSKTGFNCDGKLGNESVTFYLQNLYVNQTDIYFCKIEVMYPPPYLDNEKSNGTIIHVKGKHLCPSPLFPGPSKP

This assay concerns the target CD28-IgG-Fc (Homo sapiens, UniProt P10747). Kind of assay: SPR: binding of CD28-IgG-Fc to immobilized peptide. Conditions: read-out: KD (CD28-IgG-Fc to immobilized peptide); BIAcore 3000, CM5 chip, peptide with Cys at both termini (p2TA 700, pe12 1260 resonance units); 25 mM HEPES pH 7.4, 150 mM NaCl, 25 °C; analyte from 0.2 µM in twofold increments; 1:1 Langmuir; duplicate, representative.

Take `C[C@@H](N)C(=O)N[C@@H](CO)C(=O)N[C@@H](Cc1c[nH]cn1)C(=O)N[C@@H](Cc1ccccc1)C(=O)N[C@H](C(=O)N[C@@H](Cc1c[nH]cn1)C(=O)N[C@@H](CC(N)=O)C(=O)N[C@@H](CCCNC(=N)N)C(=O)N[C@@H](Cc1c[nH]cn1)C(=O)NCC(=O)N[C@@H](Cc1c[nH]cn1)C(=O)N[C@@H](CO)C(=O)N[C@H](C(=O)N[C@H](C)C(=O)O)[C@@H](C)O)[C@@H](C)O`: the Kd worked out at 3 µM.
